From PMC10614829 (Proceedings of the National Academy of Sciences of the …, 2023)

Legend:
[1] = molecular target: dually phosphorylated ERK2 on Tyr185 and Thr183 (ERK2-pTpY), purified (rat, UniProt P63086, phosphothreonine 183, phosphotyrosine 185); test: cell-based or functional assay
3xFLAG-tagged ERK2 = 3xFLAG-tagged ERK2 (rat, UniProt P63086); test: cell-based or functional assay

B1: β-arrestin 1 (purified, free basal state) (natural protein, UniProt P29066 1-418, looked up)
chain: MGDKGTRVFKKASPNGKLTVYLGKRDFVDHIDLVDPVDGVVLVDPEYLKERRVYVTLTCAFRYGREDLDVLGLTFRKDLFVANVQSFPPAPEDKKPLTRLQERLIKKLGEHAYPFTFEIPPNLPCSVTLQPGPEDTGKACGVDYEVKAFCAENLEEKIHKRNSVRLVIRKVQYAPERPGPQPTAETTRQFLMSDKPLHLEASLDKEIYYHGEPISVNVHVTNNTNKTVKKIKISVRQYADICLFNTAQYKCPVAMEEADDTVAPSSTFCKVYTLTPFLANNREKRGLALDGKLKHEDTNLASSTLLREGANREILGIIVSYKVKVKLVVSRGGLLGDLASSDVAVELPFTLMHPKPKEEPPHREVPESETPVDTNLIELDTNDDDIVFEDFARQRLKGMKDDKDEEDDGTGSPHLNNR
[1]
  ERK2-pTpY activity towards MBP, real-time fluorescence-based in vitro kinase assay; fold enhancement of the initial rate over no βarr control: ~5 fold over control
3xFLAG-tagged ERK2
  ERK2 autophosphorylation rate, real-time fluorescence-based in vitro kinase assay (ERK2 15 nM, βarr1 300 nM); fold enhancement of the initial rate over ERK2 alone: 10.1 fold over control
